# Measurements: patent US10261017B2, “Methods for detecting and categorizing skin sensitizers” (University of Mississippi, priority 2014, dated 2019)
# What was measured:
# [1] = pH 10
# thiol peptide = conditions: reported results from the literature; cited from earlier work
smiles,measurement,setting,value
CCCCBr [1-Bromobutane],DCYA 100-RI,[1],100.0
same,Cys-DPRA % Pept. remain.,thiol peptide,86.2%
